The numbers were not newly measured in patent US20120058112A1, “ANTIBODIES” (priority 2009, published 2012), which cites them from elsewhere.

For the data set, the system named is gefitinib-resistant (GR) human squamous carcinoma A431 cells. As to conditions: cited from earlier work.

Turning to `COc1cc2ncnc(Nc3ccc(F)c(Cl)c3)c2cc1OCCCN1CCOCC1` [gefitinib], the “phosphorylation levels of Akt” value is listed as “but not those of Akt”; the “phosphorylation levels of EGFR, ErbB3, and Erk” value is reported as “reduced”.
